The chains behind the UniProt entries cited, without tags or fusion partners.
UniProt P00519, whole entry: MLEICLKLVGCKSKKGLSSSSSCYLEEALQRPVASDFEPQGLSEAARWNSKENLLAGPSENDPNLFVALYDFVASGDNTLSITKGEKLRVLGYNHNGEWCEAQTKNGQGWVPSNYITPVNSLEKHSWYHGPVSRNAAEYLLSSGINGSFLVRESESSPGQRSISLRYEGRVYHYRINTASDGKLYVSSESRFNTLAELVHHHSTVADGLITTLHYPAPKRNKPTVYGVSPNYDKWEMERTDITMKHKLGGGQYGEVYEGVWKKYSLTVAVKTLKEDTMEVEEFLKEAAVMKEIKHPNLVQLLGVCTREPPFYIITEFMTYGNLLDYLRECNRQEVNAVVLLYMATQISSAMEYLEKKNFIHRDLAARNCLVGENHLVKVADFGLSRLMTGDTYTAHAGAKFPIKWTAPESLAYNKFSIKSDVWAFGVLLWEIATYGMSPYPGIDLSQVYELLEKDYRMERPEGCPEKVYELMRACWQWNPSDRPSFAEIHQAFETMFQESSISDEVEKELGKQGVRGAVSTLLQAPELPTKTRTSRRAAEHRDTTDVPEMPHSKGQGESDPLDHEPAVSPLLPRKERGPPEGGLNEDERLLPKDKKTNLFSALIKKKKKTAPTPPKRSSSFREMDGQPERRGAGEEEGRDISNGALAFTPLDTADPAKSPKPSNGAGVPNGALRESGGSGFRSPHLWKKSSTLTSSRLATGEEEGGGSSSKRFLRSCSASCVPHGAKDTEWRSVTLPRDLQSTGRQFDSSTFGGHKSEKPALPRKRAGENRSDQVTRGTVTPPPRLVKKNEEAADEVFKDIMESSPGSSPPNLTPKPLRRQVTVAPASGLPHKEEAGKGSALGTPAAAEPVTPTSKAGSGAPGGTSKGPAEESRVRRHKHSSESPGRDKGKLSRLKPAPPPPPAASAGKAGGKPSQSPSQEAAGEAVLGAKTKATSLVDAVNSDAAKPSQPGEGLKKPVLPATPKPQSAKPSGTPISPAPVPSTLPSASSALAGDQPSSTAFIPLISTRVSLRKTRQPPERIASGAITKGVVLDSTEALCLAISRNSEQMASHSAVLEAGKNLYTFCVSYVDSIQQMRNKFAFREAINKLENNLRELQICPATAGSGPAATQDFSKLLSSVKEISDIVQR

According to patent publication US10959968B2, “Methods for treating c-Met-dependent cancers” (Board of Supervisors of Louisiana State University and …, priority 2016, dated 2021):

Target: ABL1 (Homo sapiens, UniProt P00519)
Assay: SelectScreen Kinase Profiling
Type: biochemical

COc1cc(CCOC(=O)/C=C/c2cc(OC)c(O)c(OC)c2)ccc1O [Compound 8, (E)-4-hydroxy-3-methoxyph-ethyl 3-(4-hydroxy-3,5-dimethoxyphenyl) acrylate]
Mean inhibition at 10 μM of HVS (%): 69%
